The values below are quoted from earlier work in PMC6956362 (ACS Medicinal Chemistry Letters, 2019).

Protein sequences, listed by entry. Tags and fused reporters are not part of them.
UniProt P30989, whole entry: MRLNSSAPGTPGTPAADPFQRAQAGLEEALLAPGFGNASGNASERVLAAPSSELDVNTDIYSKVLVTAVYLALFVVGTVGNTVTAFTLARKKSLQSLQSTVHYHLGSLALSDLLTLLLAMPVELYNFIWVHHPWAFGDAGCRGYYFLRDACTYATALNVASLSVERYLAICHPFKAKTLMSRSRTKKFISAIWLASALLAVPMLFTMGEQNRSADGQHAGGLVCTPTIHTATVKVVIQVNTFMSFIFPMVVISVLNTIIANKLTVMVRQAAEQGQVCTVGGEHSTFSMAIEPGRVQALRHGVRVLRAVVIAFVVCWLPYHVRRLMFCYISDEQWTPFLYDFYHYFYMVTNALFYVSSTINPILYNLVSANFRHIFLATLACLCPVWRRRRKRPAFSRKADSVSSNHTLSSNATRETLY

In this data set the target is NTS1R (Homo sapiens) (UniProt P30989). As to the kind of experiment: radioligand binding. Particulars: cited from earlier work.

As a reminder, the Kd is the constant that tells how readily two partners part at equilibrium. On to “[3H]2 (radiolabeled neurotensin(8-13) derivative) 8-13 (from UniProt P30990)”, for which the Kd is 0.29 nM.
